Results reported in PMC7802075, “Antileishmanial Chemotherapy through Clemastine Fumarate Mediated Inhibition of the Leishmania Inositol Phosphorylceramide Synthase” (ACS Infectious Diseases, 2020).

Target: T1, LmjIPCS (inositol phosphorylceramide synthase from L. major) (Leishmania major, UniProt E9AFX2)
T1 sequence (E9AFX2 1-338): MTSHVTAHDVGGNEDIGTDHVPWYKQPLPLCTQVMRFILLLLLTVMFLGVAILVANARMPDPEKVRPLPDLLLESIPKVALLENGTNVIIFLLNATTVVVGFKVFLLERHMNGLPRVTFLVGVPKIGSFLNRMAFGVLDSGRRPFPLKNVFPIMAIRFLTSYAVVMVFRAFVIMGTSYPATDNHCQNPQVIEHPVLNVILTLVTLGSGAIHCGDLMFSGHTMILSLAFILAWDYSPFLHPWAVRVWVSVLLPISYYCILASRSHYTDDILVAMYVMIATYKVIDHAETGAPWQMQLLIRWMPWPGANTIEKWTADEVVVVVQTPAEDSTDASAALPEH

Compound: CC1=C(/C=C/C(C)=C/C=C/C(C)=C/C(=O)O)C(C)(C)CCC1 [TRETINON]
- 20mM inhibition LmjIPCS: 30%
